Measurements taken from ChEMBL document CHEMBL1156604 (Bioorg Med Chem Lett, 2008).

Columns and labels:
[1] = species on record: Homo sapiens; assay: Selectivity ratio of Ki for human mu opioid receptor to Ki for human kappa opioid receptor
[2] = species on record: Homo sapiens; assay: Selectivity ratio of Ki for human kappa opioid receptor to Ki for human delta opioid receptor
[3] = species on record: Homo sapiens; assay: Selectivity ratio of Ki for human mu opioid receptor to Ki for human delta opioid receptor

**Q.** Which Ratio Ki [1] does the source give for CN1CC[C@]23CCCC[C@H]2[C@H]1Cc1ccc(O)cc13 here?
**A.** 11

**Q.** And the Ratio Ki [2]?
**A.** 1

**Q.** And the Ratio Ki [3]?
**A.** 20

**Q.** Oc1ccc2c(c1)[C@@]13CCCC[C@H]1[C@@H](C2)N(CC1CCC1)CC3 was tested. Which Ratio Ki [1] did it give?
**A.** 1
